ChEMBL document CHEMBL5375952, “Discovery of Novel 8-Hydroxyquinoline Derivatives with Potent In Vitro and In Vivo Antifungal Activity” (J Med Chem, 2023)

Chains of the proteins cited; added tags and fusions are not shown. Lines headed by an entry give the natural chain unless they say otherwise; changes in a name come on top.
UniProt Q12809: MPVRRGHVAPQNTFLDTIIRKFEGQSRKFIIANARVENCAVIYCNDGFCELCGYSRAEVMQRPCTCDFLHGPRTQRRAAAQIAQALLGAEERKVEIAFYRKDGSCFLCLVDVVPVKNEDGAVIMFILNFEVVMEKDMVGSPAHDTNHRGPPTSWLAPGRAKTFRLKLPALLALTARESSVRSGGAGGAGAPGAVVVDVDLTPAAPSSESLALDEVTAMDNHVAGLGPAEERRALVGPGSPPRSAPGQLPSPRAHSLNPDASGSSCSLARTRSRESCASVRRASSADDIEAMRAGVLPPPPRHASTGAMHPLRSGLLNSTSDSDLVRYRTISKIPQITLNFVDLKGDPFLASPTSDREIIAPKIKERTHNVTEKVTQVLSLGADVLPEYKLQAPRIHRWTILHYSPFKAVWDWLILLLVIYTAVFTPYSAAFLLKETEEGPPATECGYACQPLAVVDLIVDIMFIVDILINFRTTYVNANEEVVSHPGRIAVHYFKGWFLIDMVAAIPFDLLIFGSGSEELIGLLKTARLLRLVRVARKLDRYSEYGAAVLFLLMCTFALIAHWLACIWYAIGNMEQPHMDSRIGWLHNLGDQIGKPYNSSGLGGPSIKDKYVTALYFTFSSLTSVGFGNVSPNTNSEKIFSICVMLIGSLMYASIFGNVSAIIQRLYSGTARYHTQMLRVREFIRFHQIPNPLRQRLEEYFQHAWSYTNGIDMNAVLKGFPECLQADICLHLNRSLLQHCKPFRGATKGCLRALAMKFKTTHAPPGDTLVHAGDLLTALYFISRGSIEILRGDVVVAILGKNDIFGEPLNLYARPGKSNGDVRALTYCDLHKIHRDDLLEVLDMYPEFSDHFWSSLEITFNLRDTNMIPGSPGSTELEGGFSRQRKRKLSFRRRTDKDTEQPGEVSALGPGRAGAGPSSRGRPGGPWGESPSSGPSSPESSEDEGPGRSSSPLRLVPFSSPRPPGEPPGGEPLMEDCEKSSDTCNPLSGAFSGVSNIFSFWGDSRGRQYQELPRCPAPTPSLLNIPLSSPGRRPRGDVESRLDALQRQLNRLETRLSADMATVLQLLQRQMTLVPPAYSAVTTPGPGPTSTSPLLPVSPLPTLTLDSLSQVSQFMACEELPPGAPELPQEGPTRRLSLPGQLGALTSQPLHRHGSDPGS

Target: Voltage-gated inwardly rectifying potassium channel KCNH2 (Homo sapiens, UniProt Q12809)
Experiment: Inhibition of hERG measured for 120 secs by electrophysiological method
Assay type: toxicity
Conditions: 2 min, time 120 sec

Q: Which INH does the source give for `COc1cc(N)c(Cl)cc1C(=O)NC1CCN(CCCOc2ccc(F)cc2)CC1OC` (stereo unspecified) [CISAPRIDE] here?
A: Its INH is 0.015 µM.
